Literature values, collected in publication PMC12181400, “Leveraging viral genome sequences and machine learning models for identification of potentially selective antiviral agents” (Communications Chemistry, 2025).

Legend:
Conditions in all cases: cited from earlier work
[1] = test system: cell viability (tox21-ap1-agonist-p1)
[2] = test system: cell viability (tox21-ar-mda-kb2-luc-agonist-p3)
[3] = test system: cell viability (tox21-ar-mda-kb2-luc-antagonist-p2)
[4] = test system: cell viability (tox21-are-bla-p1)
[5] = test system: cell viability (tox21-car-agonist-p1)

CCC(C)(CN(C)C)OC(=O)c1ccccc1.Cl (centres unmarked) [Amylocaine hydrochloride]
0: tox21-ap1-agonist-p1-viability (curve rank) [1] | tox21-ar-mda-kb2-luc-agonist-p3-viability (curve rank) [2] | tox21-ar-mda-kb2-luc-antagonist-p2-viability (curve rank) [3] | tox21-are-bla-p1-viability (curve rank) [4] | tox21-car-agonist-p1-viability (curve rank) [5]
